# Results: patent publication US9956214B2, “5-aminopyrazole-4-carboxamide inhibitors of CDPK1 from T. gondii and C. parvum” (UNIVERSITY OF WASHINGTON THROUGH ITS CENTER FOR …, priority 2013, dated 2018)
# Amino acid sequences for entries named in this document (tags omitted). Residues count along the entry.
# UniProt Q9UM73, 19-1620, species assumed: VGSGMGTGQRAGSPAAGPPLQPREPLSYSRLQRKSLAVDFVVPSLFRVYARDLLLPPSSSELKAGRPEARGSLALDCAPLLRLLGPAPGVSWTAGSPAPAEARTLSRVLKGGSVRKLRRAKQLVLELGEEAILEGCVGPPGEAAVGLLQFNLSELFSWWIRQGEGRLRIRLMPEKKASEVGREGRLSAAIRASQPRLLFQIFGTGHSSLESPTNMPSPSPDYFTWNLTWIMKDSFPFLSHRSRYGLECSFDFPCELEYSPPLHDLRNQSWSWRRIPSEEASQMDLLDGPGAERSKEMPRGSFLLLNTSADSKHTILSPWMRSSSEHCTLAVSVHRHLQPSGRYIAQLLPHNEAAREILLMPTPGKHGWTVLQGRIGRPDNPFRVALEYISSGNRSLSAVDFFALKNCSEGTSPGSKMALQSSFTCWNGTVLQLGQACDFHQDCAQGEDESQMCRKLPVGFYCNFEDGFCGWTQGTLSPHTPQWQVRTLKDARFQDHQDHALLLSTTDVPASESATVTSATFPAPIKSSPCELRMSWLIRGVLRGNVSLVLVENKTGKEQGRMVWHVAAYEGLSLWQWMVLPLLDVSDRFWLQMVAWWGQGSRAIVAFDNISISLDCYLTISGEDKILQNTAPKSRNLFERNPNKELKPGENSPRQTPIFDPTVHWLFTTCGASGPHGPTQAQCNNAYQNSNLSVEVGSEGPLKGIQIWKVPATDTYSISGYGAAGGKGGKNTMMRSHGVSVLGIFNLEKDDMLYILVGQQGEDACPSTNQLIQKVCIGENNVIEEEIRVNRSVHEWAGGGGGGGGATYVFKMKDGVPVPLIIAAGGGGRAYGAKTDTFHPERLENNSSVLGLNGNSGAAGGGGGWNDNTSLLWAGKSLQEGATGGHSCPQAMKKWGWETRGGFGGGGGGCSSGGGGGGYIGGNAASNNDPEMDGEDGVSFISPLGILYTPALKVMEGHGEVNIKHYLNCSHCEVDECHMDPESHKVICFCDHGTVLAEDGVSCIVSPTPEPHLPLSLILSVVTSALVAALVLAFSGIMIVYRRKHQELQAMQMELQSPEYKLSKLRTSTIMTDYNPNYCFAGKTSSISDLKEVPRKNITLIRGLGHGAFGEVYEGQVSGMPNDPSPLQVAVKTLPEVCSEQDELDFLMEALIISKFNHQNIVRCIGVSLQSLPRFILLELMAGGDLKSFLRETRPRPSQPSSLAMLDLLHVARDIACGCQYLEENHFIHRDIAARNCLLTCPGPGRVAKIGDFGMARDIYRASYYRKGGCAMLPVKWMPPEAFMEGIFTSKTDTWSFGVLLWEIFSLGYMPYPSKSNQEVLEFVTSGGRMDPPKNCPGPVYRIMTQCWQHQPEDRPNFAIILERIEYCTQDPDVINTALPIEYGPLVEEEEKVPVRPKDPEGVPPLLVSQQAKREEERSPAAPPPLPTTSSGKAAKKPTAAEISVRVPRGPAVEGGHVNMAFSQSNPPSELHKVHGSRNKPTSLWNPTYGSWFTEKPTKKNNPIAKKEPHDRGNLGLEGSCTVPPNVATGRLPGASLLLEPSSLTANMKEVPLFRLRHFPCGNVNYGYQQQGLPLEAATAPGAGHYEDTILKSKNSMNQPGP
# UniProt P28482, whole entry, looked up, species assumed: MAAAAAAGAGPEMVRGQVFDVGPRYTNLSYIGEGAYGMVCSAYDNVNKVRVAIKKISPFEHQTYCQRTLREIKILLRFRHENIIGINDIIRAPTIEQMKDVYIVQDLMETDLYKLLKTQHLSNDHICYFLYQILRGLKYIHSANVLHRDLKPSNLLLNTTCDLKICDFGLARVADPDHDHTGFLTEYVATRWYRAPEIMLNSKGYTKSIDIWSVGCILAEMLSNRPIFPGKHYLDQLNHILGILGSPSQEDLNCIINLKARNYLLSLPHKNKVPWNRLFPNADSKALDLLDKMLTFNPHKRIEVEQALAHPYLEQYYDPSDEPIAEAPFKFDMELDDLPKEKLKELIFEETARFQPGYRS
# Tests used:
# ALK = ALK (Homo sapiens (Human), UniProt Q9UM73); assay: Kinase panel selectivity: ALK
# Erk2 = Erk2 (Homo sapiens (Human), UniProt P28482); assay: Kinase panel selectivity: Erk2
structure (smiles),measurement,setting,value
"CCOc1ccc2cc(-c3nn(C(C)(C)C)c(N)c3C(N)=O)cnc2c1 [Compound 39, 5-amino-1-(tert-butyl)-3-(7-ethoxyquinolin-3-yl)-1H-pyrazole-4-carboxamide]",ALK pKi,ALK,5.24
same,Erk2 pKi,Erk2,5.18
